The list is not random: actives were taken first. Their share in the collection is about 0.46%.
GIV Gai3 FP: GIV-Galpha-i interaction inhibition. P08753. Galpha-i3/FITC-GIV peptide fluorescence polarization, 90 min; active compounds read low; scaled: aluminum fluoride 0%, vehicle 100%. percent of control (FP), % (test concentration not listed). 210,000 compounds, 0.42% hits. AID 1224905;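 active = replicate mean at 85% of control or lower, very high polarization wells dropped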;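 also: lower values mean more displacement of the GIV peptide from Galpha-i3; wells of about 15 µL received 100 nL stock; the first replicate is given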
HCMV UL50-53 inh: cytomegalovirus nuclear egress complex inhibition; HTRF UL50-UL53 interaction, normalized percent inhibition; inhibition, % (no concentration beside the values); 190,000 tested, 0.15% active; AID 1918969; in the data active = inhibition above about 27%, passing the limit was not always enough
GIV-Gai FP conf: confirmation of inhibitors of GIV binding to rat Galpha-i3; shares compounds with GIV Gai3 FP; FITC-GIV peptide binding to Galphai3, fluorescence polarization; active compounds read low; fluorescence polarization, mP at 100 µM; 580 tested, 38% active;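 active = inhibition score of 15 or more, meaning 100 minus mean polarization as percent of control over three replicates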;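 also: lower mP means peptide displaced from Galphai3 so more inhibition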
GIV-Gai AS conf: confirmation of inhibitors of GIV binding to human Galpha-i3 | shares compounds with GIV Gai3 FP | AlphaScreen Galphai3-GIV binding, purified proteins, 90 min; active compounds read low | AlphaScreen counts at 100 µM | 580 tested, 39% active;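 active = inhibition score at or above a set limit, where the score is 100 minus the three-replicate mean percent of control signal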
Starred values were filed as active, the others as inactive; / = no result.

No. | canonical_smiles | GIV Gai3 FP | HCMV UL50-53 inh
1 | Cc1cc(C)c2oc(-c3ccc(N/C=c4\c(C)c(C#N)c5nc6ccccc6n5c4=O)cc3)nc2c1 | 72.6* | 2.6
2 | CCOC(=O)N(c1ccccc1)P1OCC(C)(C)CO1 | 122.3 | /
3 | Cc1cccc(CN2CC=C(c3noc(CCC(=O)N4CCCc5ccccc54)n3)CC2)c1 | 129.3 | /
4 | N#Cc1ccc(OCC(=O)N2CCN(C/C=C/c3ccccc3)CC2)cc1 | / | 11.0
5 | CCN(CC)C(=O)CN1C(=O)CN=C(c2ccc(OC)cc2)c2c1sc1c2CCCC1 | 103.7 | -28.1
6 | Cc1cccc(N2CCN(CCN)CC2)c1C | 101.4 | -1.1
7 | COc1cc(C=C2C(=O)NC(=O)NC2=O)ccc1OS(=O)(=O)c1ccccc1[N+](=O)[O-] | 70.8* | 51.2*
8 | COc1cc(/C=C2\C(=O)NC(=O)N(c3ccccc3)C2=O)c([N+](=O)[O-])cc1OC | 110.7 | /
9 | C[C@]12CCC(=O)CC1CCC1C2CC[C@@]2(C)C1CC[C@]2(C)O (some centres not stated) | / | -47.7
10 | CC[N+](CC)=c1ccc2ccc(O)cc2o1 | 63.0* | -31.0

No. | GIV-Gai FP conf | GIV-Gai AS conf
1 | 80.3 | 44971
2 | / | /
3 | / | /
4 | / | /
5 | / | /
6 | / | /
7 | 58.1 | 54298
8 | / | /
9 | / | /
10 | 43* | 33013*

A run of entries of the results above, as a working copy:
No. | canonical_smiles | GIV Gai3 FP | HCMV UL50-53 inh
1 | Cc1cc(C)c2oc(-c3ccc(N/C=c4\c(C)c(C#N)c5nc6ccccc6n5c4=O)cc3)nc2c1 | 72.6* | 2.6
2 | CCOC(=O)N(c1ccccc1)P1OCC(C)(C)CO1 | 122.3 | /

No. | GIV-Gai FP conf | GIV-Gai AS conf
1 | 80.3 | 44971
2 | / | /

From PubChem BioAssay
